The target of test [1] is T1, Nitric oxide synthase, inducible (Mus musculus, UniProt P29477).
T1 sequence (P29477 whole entry): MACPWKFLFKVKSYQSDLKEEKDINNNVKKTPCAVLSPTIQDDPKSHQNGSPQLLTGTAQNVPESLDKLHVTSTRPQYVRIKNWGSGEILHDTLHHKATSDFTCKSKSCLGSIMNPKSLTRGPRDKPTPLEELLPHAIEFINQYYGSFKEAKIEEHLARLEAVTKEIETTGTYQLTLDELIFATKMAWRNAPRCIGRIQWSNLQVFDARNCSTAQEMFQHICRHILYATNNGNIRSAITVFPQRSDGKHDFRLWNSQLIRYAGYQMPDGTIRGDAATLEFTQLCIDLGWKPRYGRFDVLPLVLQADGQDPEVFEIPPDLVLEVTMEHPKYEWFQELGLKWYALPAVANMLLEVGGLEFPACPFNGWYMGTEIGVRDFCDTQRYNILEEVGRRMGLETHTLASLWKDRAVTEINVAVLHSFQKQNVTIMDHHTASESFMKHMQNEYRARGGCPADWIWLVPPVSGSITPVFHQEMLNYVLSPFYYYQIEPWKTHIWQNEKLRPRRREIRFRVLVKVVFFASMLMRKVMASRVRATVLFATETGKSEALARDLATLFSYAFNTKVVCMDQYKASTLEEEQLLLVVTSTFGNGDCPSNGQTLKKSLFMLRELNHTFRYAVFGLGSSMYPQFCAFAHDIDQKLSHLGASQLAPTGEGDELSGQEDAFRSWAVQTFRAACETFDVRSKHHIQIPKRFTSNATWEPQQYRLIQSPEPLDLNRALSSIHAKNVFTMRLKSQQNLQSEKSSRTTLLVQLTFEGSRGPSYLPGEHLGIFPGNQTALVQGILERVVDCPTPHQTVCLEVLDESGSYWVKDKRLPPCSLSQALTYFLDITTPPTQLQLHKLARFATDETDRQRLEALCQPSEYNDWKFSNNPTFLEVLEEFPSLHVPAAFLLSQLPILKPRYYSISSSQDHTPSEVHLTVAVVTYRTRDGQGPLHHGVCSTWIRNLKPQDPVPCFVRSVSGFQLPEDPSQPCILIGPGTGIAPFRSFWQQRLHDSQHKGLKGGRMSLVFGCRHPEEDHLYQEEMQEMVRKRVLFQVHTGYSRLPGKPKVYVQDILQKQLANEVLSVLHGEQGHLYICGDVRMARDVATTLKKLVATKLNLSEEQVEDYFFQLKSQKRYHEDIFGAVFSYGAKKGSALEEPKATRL

Chains of the proteins cited; added tags and fusions are not shown.
UniProt P29476, whole entry: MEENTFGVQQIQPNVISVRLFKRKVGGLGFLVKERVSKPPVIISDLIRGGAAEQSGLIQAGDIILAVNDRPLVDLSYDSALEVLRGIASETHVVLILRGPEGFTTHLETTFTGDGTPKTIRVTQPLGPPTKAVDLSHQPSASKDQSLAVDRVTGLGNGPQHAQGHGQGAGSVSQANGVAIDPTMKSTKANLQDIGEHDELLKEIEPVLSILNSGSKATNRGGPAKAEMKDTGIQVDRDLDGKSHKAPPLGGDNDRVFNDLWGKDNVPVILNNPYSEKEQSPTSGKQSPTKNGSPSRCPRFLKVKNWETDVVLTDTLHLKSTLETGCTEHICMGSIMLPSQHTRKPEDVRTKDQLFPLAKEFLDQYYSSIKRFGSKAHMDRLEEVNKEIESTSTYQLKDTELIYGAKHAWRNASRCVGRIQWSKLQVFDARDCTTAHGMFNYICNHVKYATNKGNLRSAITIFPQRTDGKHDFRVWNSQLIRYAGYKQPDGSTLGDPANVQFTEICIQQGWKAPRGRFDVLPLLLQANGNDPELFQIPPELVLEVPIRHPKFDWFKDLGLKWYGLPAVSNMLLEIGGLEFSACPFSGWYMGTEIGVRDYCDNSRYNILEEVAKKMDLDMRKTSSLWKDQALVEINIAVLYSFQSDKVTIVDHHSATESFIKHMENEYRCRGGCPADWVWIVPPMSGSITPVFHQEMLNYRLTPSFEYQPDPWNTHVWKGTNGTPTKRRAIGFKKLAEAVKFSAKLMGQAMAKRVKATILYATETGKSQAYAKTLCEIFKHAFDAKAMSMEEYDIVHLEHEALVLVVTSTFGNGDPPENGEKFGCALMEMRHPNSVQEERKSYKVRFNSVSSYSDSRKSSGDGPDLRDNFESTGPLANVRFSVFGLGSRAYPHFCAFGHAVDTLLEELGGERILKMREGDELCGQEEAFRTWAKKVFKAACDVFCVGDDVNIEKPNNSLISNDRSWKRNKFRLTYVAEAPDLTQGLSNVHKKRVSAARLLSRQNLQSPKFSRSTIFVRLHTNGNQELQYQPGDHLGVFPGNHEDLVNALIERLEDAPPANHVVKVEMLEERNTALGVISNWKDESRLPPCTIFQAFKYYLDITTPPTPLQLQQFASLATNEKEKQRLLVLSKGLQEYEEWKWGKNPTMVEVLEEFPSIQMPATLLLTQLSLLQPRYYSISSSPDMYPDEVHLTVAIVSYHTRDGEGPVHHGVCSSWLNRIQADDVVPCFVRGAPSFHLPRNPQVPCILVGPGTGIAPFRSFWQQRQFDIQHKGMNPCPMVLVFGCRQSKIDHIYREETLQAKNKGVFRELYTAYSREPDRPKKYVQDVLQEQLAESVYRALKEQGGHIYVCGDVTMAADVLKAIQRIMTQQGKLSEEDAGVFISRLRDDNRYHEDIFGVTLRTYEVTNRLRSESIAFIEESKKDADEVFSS

A further test deals with Nitric oxide synthase 1 (Rattus norvegicus, UniProt P29476).
The target in another test is T2, Nitric oxide synthase 3 (Bos taurus, UniProt P29473).
T2 sequence (P29473 whole entry): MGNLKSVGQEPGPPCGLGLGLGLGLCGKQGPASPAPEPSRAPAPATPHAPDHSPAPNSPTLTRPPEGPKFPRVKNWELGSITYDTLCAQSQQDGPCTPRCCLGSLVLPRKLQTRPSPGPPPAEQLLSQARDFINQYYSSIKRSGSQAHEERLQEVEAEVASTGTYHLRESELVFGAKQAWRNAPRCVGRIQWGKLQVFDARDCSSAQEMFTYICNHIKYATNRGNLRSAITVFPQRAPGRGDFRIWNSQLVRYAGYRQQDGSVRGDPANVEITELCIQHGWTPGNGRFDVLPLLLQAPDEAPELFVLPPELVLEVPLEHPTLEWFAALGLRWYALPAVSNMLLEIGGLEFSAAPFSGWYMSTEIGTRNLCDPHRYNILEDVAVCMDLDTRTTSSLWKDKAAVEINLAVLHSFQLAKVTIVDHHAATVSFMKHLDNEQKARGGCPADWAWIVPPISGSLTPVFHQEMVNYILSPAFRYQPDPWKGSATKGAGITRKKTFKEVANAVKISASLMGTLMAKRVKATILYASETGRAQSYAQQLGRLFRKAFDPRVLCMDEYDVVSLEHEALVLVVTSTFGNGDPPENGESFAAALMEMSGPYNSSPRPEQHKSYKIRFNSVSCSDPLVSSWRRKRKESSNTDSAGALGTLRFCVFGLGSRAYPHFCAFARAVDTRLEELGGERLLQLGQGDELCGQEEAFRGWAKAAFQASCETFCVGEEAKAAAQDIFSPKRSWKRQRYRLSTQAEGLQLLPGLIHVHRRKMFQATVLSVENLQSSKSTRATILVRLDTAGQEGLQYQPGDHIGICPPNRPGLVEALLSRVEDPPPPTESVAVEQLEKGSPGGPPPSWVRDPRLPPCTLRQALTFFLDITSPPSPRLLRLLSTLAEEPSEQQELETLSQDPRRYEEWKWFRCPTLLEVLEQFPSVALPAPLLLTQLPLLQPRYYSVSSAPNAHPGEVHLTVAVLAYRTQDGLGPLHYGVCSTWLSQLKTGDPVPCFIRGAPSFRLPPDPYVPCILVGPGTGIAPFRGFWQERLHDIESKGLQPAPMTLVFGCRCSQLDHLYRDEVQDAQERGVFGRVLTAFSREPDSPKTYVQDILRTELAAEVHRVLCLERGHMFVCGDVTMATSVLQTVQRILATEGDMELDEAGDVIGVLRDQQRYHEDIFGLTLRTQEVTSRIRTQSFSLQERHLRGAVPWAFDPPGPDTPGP

`Cc1cc(N)nc(C[C@H]2CNC[C@H]2OCCNC(=O)Cc2cccc(F)c2)c1` (racemic): in test [1], the Ki was found to be 77 µM. With `Cc1cc(N)nc(C[C@H]2CNC[C@H]2OCC(=O)NCCc2cccc(F)c2)c1` (racemic), the Ki was 52 µM in test [1] and 2.3 µM on Nitric oxide synthase 1.

With `Cc1cc(N)nc(C[C@H]2CNC[C@H]2NC(=O)CNCCc2cccc(F)c2)c1` (racemic), the Ki on Nitric oxide synthase 3 came to 27 µM; in test [1] it was 5.4 µM.

(Values after ChEMBL document CHEMBL1153945 (Bioorg Med Chem, 2009).)
